Data: patent US20230135127A1, “COMPOSITIONS AND METHODS FOR DISEASE TREATMENT AND PREVENTION BY PH MODIFIERS AND/OR CELL PROLIFERATION INHIBITORS” (priority 2021, published 2023)
Where a name gives a salt, the structure may show the parent alone. Read-outs that look alike come from different tables or passages of the source.

System: proliferating cells in the lung tissue

Row | SMILES | Ki-67+ cells in the lung tissues (IHC) (i.t. HCl or HOAc, i.p. NaOH) | alveolar walls, layers of pneumocytes (saline: multiple layers) | alveolar walls, layers of pneumocytes (mouse, in vivo) | Ki-67+ cells in the lung tissues (IHC) (mouse, in vivo, ip) | Ki-67 staining intensity in lungs (vs saline- or acid-treated mice)
1 | Cl [HCl, hydrochloric acid] | only sporadically detected | a single layer of pneumocytes |  |  | 
2 | CC(=O)O [HOAc, acetic acid] |  |  | a single layer of pneumocytes | only sporadically detected | 
3 | [Na+].[OH-] [NaOH, sodium hydroxide] | abundant | multiple layers of pneumocytes |  |  | stronger
